Some structures show a salt or complex split into parts, the way the source records it.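 Method: 48-hour compound exposure of cells in 96-well plates, five concentrations, linear interpolation of endpoints. GI50 marks 50% less growth. TGI: total growth inhibition.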
How the values were obtained:
Assay in all cases: inhibition of tumour cell growth, NCI panel, 48 h
SF-539 CNS = test system: SF-539 CNS
DMS 114 small cell lung = test system: DMS 114 small cell lung
ACHN renal = test system: ACHN renal
NCI-H460 lung = test system: NCI-H460 lung
UACC-257 melanoma = test system: UACC-257 melanoma
SF-295 CNS = test system: SF-295 CNS
HCC-2998 colon = test system: HCC-2998 colon
OVCAR-5 ovarian = test system: OVCAR-5 ovarian
IGROV1 ovarian = test system: IGROV1 ovarian
UO-31 renal = test system: UO-31 renal
SNB-19 CNS = test system: SNB-19 CNS
NCI-H522 lung = test system: NCI-H522 lung
KM12 colon = test system: KM12 colon
HCT-116 colon = test system: HCT-116 colon
SK-MEL-28 melanoma = test system: SK-MEL-28 melanoma
SK-MEL-2 melanoma = test system: SK-MEL-2 melanoma
UACC-62 melanoma = test system: UACC-62 melanoma
HOP-92 NSCLC = test system: HOP-92 NSCLC
OVCAR-4 ovarian = test system: OVCAR-4 ovarian
KM20L2 colon = test system: KM20L2 colon
SNB-78 CNS = test system: SNB-78 CNS
SK-MEL-5 melanoma = test system: SK-MEL-5 melanoma
NCI-H226 lung = test system: NCI-H226 lung
M14 melanoma = test system: M14 melanoma
NCI-H322M lung = test system: NCI-H322M lung
DLD-1 colon = test system: DLD-1 colon
NCI-H23 lung = test system: NCI-H23 lung
K-562 leukemia = test system: K-562 leukemia
OVCAR-3 ovarian = test system: OVCAR-3 ovarian
HOP-18 NSCLC = test system: HOP-18 NSCLC
MALME-3M melanoma = test system: MALME-3M melanoma
786-0 renal = test system: 786-0 renal
RXF 393 renal = test system: RXF 393 renal
LOX IMVI melanoma = test system: LOX IMVI melanoma

C(c1nnn[n-]1)c1nnn[n-]1.[Au+].[Au+].c1ccc([PH+](c2ccccc2)c2ccccc2)cc1.c1ccc([PH+](c2ccccc2)c2ccccc2)cc1
GI50 (SF-539 CNS): 1410 nM
TGI (SF-539 CNS): 2740 nM
TGI (DMS 114 small cell lung): 2120 nM
GI50 (ACHN renal): 1250 nM
TGI (ACHN renal): 2520 nM
GI50 (NCI-H460 lung): 1680 nM
TGI (NCI-H460 lung): 3640 nM
GI50 (UACC-257 melanoma): 742 nM
TGI (UACC-257 melanoma): 2220 nM
GI50 (SF-295 CNS): 1550 nM
TGI (SF-295 CNS): 2890 nM
GI50 (HCC-2998 colon): 1700 nM
TGI (HCC-2998 colon): 4590 nM
GI50 (OVCAR-5 ovarian): 1940 nM
TGI (OVCAR-5 ovarian): 3400 nM
GI50 (IGROV1 ovarian): 701 nM
TGI (IGROV1 ovarian): 2490 nM
GI50 (UO-31 renal): 1600 nM
TGI (UO-31 renal): 2950 nM
GI50 (SNB-19 CNS): 1180 nM
TGI (SNB-19 CNS): 2410 nM
GI50 (NCI-H522 lung): 149 nM
TGI (NCI-H522 lung): 386 nM
GI50 (KM12 colon): 1630 nM
TGI (KM12 colon): 3710 nM
GI50 (HCT-116 colon): 1430 nM
TGI (HCT-116 colon): 3900 nM
GI50 (SK-MEL-28 melanoma): 637 nM
TGI (SK-MEL-28 melanoma): 2020 nM
GI50 (SK-MEL-2 melanoma): 783 nM
TGI (SK-MEL-2 melanoma): 2090 nM
TGI (UACC-62 melanoma): 2120 nM
GI50 (HOP-92 NSCLC): 678 nM
TGI (HOP-92 NSCLC): 1710 nM
GI50 (OVCAR-4 ovarian): 739 nM
TGI (OVCAR-4 ovarian): 2150 nM
GI50 (KM20L2 colon): 1210 nM
TGI (KM20L2 colon): 2550 nM
GI50 (SNB-78 CNS): 514 nM
TGI (SNB-78 CNS): 2970 nM
GI50 (SK-MEL-5 melanoma): 399 nM
TGI (SK-MEL-5 melanoma): 1620 nM
GI50 (NCI-H226 lung): 867 nM
TGI (NCI-H226 lung): 2110 nM
GI50 (M14 melanoma): 731 nM
TGI (M14 melanoma): 2350 nM
GI50 (NCI-H322M lung): 1560 nM
TGI (NCI-H322M lung): 2980 nM
GI50 (DLD-1 colon): 294 nM
TGI (DLD-1 colon): 1550 nM
GI50 (NCI-H23 lung): 1030 nM
TGI (NCI-H23 lung): 2550 nM
GI50 (K-562 leukemia): 362 nM
TGI (K-562 leukemia): 3870 nM
GI50 (OVCAR-3 ovarian): 1000 nM
TGI (OVCAR-3 ovarian): 2230 nM
GI50 (HOP-18 NSCLC): 1180 nM
TGI (HOP-18 NSCLC): 2410 nM
GI50 (MALME-3M melanoma): 666 nM
TGI (MALME-3M melanoma): 2830 nM
TGI (786-0 renal): 1020 nM
TGI (RXF 393 renal): 857 nM
GI50 (LOX IMVI melanoma): 992 nM
TGI (LOX IMVI melanoma): 2190 nM

Reference: PubChem BioAssay (NCI)
